Patent US6794489B2, “Compositions and methods for treatment of sexual dysfunction” (Palatin Technologies, Inc., priority 1999, dated 2004)

Chains of the proteins cited; added tags and fusions are not shown.
UniProt P32245, whole entry: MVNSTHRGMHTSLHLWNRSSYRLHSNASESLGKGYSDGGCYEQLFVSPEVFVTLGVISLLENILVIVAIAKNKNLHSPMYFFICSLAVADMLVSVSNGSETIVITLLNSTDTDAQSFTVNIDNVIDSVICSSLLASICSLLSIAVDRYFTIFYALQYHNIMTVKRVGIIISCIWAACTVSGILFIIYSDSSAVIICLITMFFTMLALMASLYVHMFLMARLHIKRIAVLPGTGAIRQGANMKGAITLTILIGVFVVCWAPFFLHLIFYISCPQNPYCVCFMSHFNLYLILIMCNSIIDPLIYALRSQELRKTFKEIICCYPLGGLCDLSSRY

Target: MC4-R (Homo sapiens, UniProt P32245)
Experiment: Agonist activity by cAMP detection in HEK 293 cells
Type: cell-based
Set-up: expressed in transfected cells; host or cells: HEK 293 cells, stably transfected

## α-MSH
Test compound 3.91 × 10^−10M
  cAMP CONCENTRATION: 20.2 pmol/mL
Test compound 6.25 × 10^−9M
  cAMP CONCENTRATION: 45.0 pmol/mL
Test compound […] 10^−8M
  cAMP CONCENTRATION: 146.3 pmol/mL
Test compound […] 10^−10M
  cAMP CONCENTRATION: 40.0 pmol/mL
